# Binding of CDR-mutated scFvs to a peptide of the spike HR2 region

Values reported by Li et al. 2023, doi:10.1038/s41467-023-39022-2 (FLAb copy).

Target peptide (SARS-CoV-2 spike, HR2 region): PDVDLGDISGINAS

Each scFv is VH, three GGGGS repeats, VL, as in the parent Ab-14, and differs from it in the CDRs of the heavy chain only.
VH: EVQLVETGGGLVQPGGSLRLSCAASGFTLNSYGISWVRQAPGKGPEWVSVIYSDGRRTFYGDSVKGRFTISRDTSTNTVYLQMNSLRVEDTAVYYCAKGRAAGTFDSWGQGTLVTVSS
VL: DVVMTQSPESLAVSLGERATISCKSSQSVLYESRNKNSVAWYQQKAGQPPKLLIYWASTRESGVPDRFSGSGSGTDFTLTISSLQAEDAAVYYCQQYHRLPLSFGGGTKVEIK

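The variants were designed computationally from a first round of random CDR variants and then made and measured. Their group label is 14H_En_Gibbs (En: ensemble of fine-tuned language models; Gibbs: Gibbs sampling). AlphaSeq pools MATa yeast showing the antibodies with MATalpha yeast showing the peptide. Pairs that bind mate more often; barcode pairs of the diploids are counted by sequencing. Read counts were normalised to the haploid input and turned into Kd by a linear fit to BCL2-family pairs of known affinity, for each replicate. Mating was done six times.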

Each variant is given by its three heavy chain CDRs, as the data file delimits them; those of the parent are GFTLNSYGIS, VIYSDGRRTFYGDSVK, GRAAGTFDS. Scale: log10 of Kd in nM, estimated from mating counts; low values are strong binders. Averages over replicates are reported, and they cover detected replicates only. "nd" marks a missing value. The strain was present, yet no cells mated with the target were sequenced in that replicate, which points to weak or no binding. A sequence measured in both rounds can read differently, since the two assays cover different ranges.

{"CDR-H1": "GFDLDKYGIS", "CDR-H2": "VIYADGRRKFYQNQFK", "CDR-H3": "GGQAGTFDI", "log10 Kd (nM) by replicate": "-0.42 -0.30 0.18 0.44 -0.10 0.95", "mean log10 Kd (nM)": "0.13", "signal with controls": "0/18"}
{"CDR-H1": "GSDLEEYGIS", "CDR-H2": "VIYADGVRTKYAQDVK", "CDR-H3": "GGQVVTASL", "log10 Kd (nM) by replicate": "nd nd nd nd nd nd", "mean log10 Kd (nM)": "nd", "signal with controls": "0/18"}
{"CDR-H1": "GFQLDEYGIS", "CDR-H2": "VIYADGVRSSYVDSVK", "CDR-H3": "GEITGTFSE", "log10 Kd (nM) by replicate": "nd nd nd nd nd nd", "mean log10 Kd (nM)": "nd", "signal with controls": "0/18"}
{"CDR-H1": "GDGLLEYGIS", "CDR-H2": "VIYADGMREAYAENVK", "CDR-H3": "GQTGGTFVL", "log10 Kd (nM) by replicate": "2.22 nd nd nd nd nd", "mean log10 Kd (nM)": "2.22", "signal with controls": "0/18"}
{"CDR-H1": "GFDLEEMGIH", "CDR-H2": "VIYADGIRTAVSNDVK", "CDR-H3": "GNVAGTIDV", "log10 Kd (nM) by replicate": "nd nd nd nd nd 1.36", "mean log10 Kd (nM)": "1.36", "signal with controls": "0/18"}
{"CDR-H1": "GFDLDEFGIS", "CDR-H2": "VIYADGSRQVYQDNVK", "CDR-H3": "GVGFGTFTD", "log10 Kd (nM) by replicate": "nd nd nd nd nd nd", "mean log10 Kd (nM)": "nd", "signal with controls": "0/18"}
{"CDR-H1": "GFWLDEYGIS", "CDR-H2": "VIYADGMRTAYKNSVK", "CDR-H3": "GSFTYVFDV", "log10 Kd (nM) by replicate": "nd nd nd nd nd nd", "mean log10 Kd (nM)": "nd", "signal with controls": "0/18"}
{"CDR-H1": "GFDIQDLGIS", "CDR-H2": "VIYADGQRTAYSDGFK", "CDR-H3": "GLIAGTFNT", "log10 Kd (nM) by replicate": "0.03 -0.01 -0.10 0.00 -0.30 0.16", "mean log10 Kd (nM)": "-0.04", "signal with controls": "0/18"}
{"CDR-H1": "GFDLNEYGIS", "CDR-H2": "VIYADGMRTAYEDKVK", "CDR-H3": "GTFLDAGWL", "log10 Kd (nM) by replicate": "nd nd nd nd nd nd", "mean log10 Kd (nM)": "nd", "signal with controls": "0/18"}
{"CDR-H1": "GFDLDQYGIS", "CDR-H2": "VIYADGRRTAYANDVK", "CDR-H3": "GKYAGIFLD", "log10 Kd (nM) by replicate": "nd nd nd nd nd nd", "mean log10 Kd (nM)": "nd", "signal with controls": "1/18 (-0.04)"}
{"CDR-H1": "GVDIDEYGIS", "CDR-H2": "VIYADGIRTFYIDKVK", "CDR-H3": "GNLGGQFDM", "log10 Kd (nM) by replicate": "nd nd nd nd nd nd", "mean log10 Kd (nM)": "nd", "signal with controls": "0/18"}
{"CDR-H1": "GFDIEDYGIS", "CDR-H2": "VIYADGKRSSYSNSFK", "CDR-H3": "GLMAGNMMV", "log10 Kd (nM) by replicate": "nd nd nd nd nd nd", "mean log10 Kd (nM)": "nd", "signal with controls": "1/18 (0.93)"}
{"CDR-H1": "GFSLDEYGVS", "CDR-H2": "VIYADGVRQFYCDDVK", "CDR-H3": "GGIAGTFLY", "log10 Kd (nM) by replicate": "nd 0.63 1.10 1.37 1.47 nd", "mean log10 Kd (nM)": "1.14", "signal with controls": "0/18"}
{"CDR-H1": "GFKLNEYGIS", "CDR-H2": "VIYADGQRVAYTNSFK", "CDR-H3": "GTQAGMFFE", "log10 Kd (nM) by replicate": "nd nd nd nd nd nd", "mean log10 Kd (nM)": "nd", "signal with controls": "0/18"}
{"CDR-H1": "GFNLEEYGIS", "CDR-H2": "VIYADGSRSSYIESVK", "CDR-H3": "GHWNADFIL", "log10 Kd (nM) by replicate": "nd nd nd nd nd nd", "mean log10 Kd (nM)": "nd", "signal with controls": "0/18"}
{"CDR-H1": "GFDLDEYGIS", "CDR-H2": "VIYADGKRSAYHDSFK", "CDR-H3": "GQLGKVSIV", "log10 Kd (nM) by replicate": "nd nd nd nd nd nd", "mean log10 Kd (nM)": "nd", "signal with controls": "0/18"}
{"CDR-H1": "GFDLDEYGIS", "CDR-H2": "VIYADGMRVSYSQNVK", "CDR-H3": "GRGGVVFIA", "log10 Kd (nM) by replicate": "nd nd nd nd nd nd", "mean log10 Kd (nM)": "nd", "signal with controls": "0/18"}
{"CDR-H1": "GFKLEAYGIS", "CDR-H2": "VIYADGQRAAYVDKVK", "CDR-H3": "GQHGGMFDQ", "log10 Kd (nM) by replicate": "nd nd nd nd nd 1.18", "mean log10 Kd (nM)": "1.18", "signal with controls": "0/18"}
{"CDR-H1": "GFSLEEYGIS", "CDR-H2": "VIYADGSRRAYAQDVK", "CDR-H3": "GGTAVGFVV", "log10 Kd (nM) by replicate": "nd nd nd nd nd nd", "mean log10 Kd (nM)": "nd", "signal with controls": "0/18"}
{"CDR-H1": "GFNINEYGIS", "CDR-H2": "VIYADGKRTAYSESVK", "CDR-H3": "GNSAGTMNH", "log10 Kd (nM) by replicate": "nd nd nd nd nd nd", "mean log10 Kd (nM)": "nd", "signal with controls": "0/18"}
{"CDR-H1": "GYDLNEFGIS", "CDR-H2": "VIYADGSRVAYADDVK", "CDR-H3": "GNVAGHILS", "log10 Kd (nM) by replicate": "nd nd nd nd nd nd", "mean log10 Kd (nM)": "nd", "signal with controls": "0/18"}

Empty control strains, which show no peptide, gave a signal in 1% of pairings with all heavy chain designs; the median was 2.08 and 95% of these signals were weaker than 0.84. No background was subtracted. The control count says in how many pairings with the empty strains this scFv gave a signal, with their mean in brackets. The authors averaged sequences with at least three values out of six and counted those with two or fewer as poor binders. Of ten entries with the parent sequence, four were seen in most replicates (averages 0.34 to 2.37), three in one and three in none, so single entries are noisy.